Reference: publication PMC9697446 (International Journal of Molecular Sciences, 2022)

Chains of the proteins cited; added tags and fusions are not shown. Residues count along the entry.
UniProt P22303, 32-617 isoform P22303-2 limits assumed: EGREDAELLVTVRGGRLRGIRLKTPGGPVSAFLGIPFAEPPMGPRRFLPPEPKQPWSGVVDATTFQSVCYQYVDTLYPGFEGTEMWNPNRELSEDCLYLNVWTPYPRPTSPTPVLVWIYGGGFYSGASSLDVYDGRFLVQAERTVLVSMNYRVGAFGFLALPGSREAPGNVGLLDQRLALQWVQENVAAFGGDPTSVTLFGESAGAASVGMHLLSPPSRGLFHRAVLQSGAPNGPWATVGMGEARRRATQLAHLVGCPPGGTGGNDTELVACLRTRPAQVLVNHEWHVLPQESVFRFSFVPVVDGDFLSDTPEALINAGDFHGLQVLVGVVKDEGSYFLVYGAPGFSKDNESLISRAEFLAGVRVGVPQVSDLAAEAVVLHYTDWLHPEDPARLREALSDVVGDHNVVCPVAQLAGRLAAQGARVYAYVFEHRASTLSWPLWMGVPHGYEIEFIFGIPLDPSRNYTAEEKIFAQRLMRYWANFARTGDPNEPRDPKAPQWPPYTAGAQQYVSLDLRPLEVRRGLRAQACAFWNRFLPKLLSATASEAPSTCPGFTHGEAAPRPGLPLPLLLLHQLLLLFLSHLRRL

Target: T1, human erythrocyte AChE (Homo sapiens, UniProt P22303)
T1 construct: The esterase profile was estimated using the human erythrocyteAChE; purchased Sigma-Aldrich; host or cells: human erythrocytes
Type: biochemical
Conditions: IC50 ± SEM, n = 3
Method: The esterase profile was estimated using the human erythrocyteAChE, the equine serum BChE, and the porcine liver CES.
Human erythrocyte AChE, equine serum BChE, porcine liver CES, acetylthiocholine iodide (ATCh), butyrylthiocholine iodide (BTCh), 5,5′-dithio-bis-(2-nitrobenzoic acid) (DTNB), 4-nitrophenol acetate (4-NPA), and BNPP were purchased from Sigma-Aldrich (St. Louis, MO, USA).
AChE and BChE activities were measured via the Ellman method. The assay solution consisted of 0.1 M K/Na phosphate buffer pH 7.5, 25 °C with the addition of 0.33 mM DTNB, 0.02 unit/mL of AChE or BChE and 1 mM of substrate (ATCh or BTCh, respectively). The assays were carried out with a reagent blank containing all components (except AChE orBChE) in order to account for the non-enzymatic hydrolysis of the substrate. […]
The test compounds were dissolved in DMSO, and the incubation mixture contained 2% (v/v) of the solvent. Enzyme inhibition was first assessed at a single concentration of 20 µM for each compound after a 5 min incubation at 25 °C in three separate experiments. […] Measurements were performed with a FLUOStar Optima microplate reader (BMG Labtech, Ortenberg, Germany). […] The results were expressed as the mean ± SEM. The reaction rates in the presence and absence of the inhibitor were compared, and the percent of residual enzyme activity due to the presence of test compounds was calculated.

CN(C)c1ccc2nc3ccc(=[N+](C)C)cc-3sc2c1 [MB, Methylene blue, reference compound]
IC50: 1210 ± 90 nM
